## Antibody variant affinities, Ab-14 light chain, assay B

Values reported by Li et al. 2023, doi:10.1038/s41467-023-39022-2 (FLAb copy).

All variants were tested on one target, the spike HR2 peptide PDVDLGDISGINAS (SARS-CoV-2).

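Phage display of a naive human antibody library on the peptide gave the parent. Designed CDR sequences, proposed from the first random library and measured here. Group labels follow the data file (Ctrl: baseline library sampled from a position-specific scoring matrix, with some repeated check sequences; En: ensemble of fine-tuned language models; GP: Gaussian process model; GPLM: also part of the Gaussian process libraries; HC: hill climbing; Gen: genetic algorithm; Gibbs: Gibbs sampling; a sequence that several methods proposed may carry one label only). AlphaSeq pools MATa yeast showing the antibodies with MATalpha yeast showing the peptide. After mating in shaken culture at 30 °C for 16 h, diploids were selected and their barcode pairs sequenced. Scores were corrected for input abundance and mapped to Kd with protein pairs of known affinity run in the same pool. There are six technical replicates.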

Ab-14 is the parent antibody, in scFv form: VH, then three GGGGS repeats, then VL. The heavy chain is unchanged in all variants.
VH: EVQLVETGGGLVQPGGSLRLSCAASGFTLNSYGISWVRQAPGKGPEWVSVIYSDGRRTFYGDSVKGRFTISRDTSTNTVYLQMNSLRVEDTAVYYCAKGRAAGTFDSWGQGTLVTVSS
VL: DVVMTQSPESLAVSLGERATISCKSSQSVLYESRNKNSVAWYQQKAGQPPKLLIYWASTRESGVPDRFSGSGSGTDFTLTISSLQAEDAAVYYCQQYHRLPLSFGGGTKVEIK

Variants are written as CDR1, CDR2 and CDR3 of the light chain (limits as in the source). Parent: KSSQSVLYESRNKNSVA, WASTRES, QQYHRLPLS.
Values are log10 of the apparent Kd in nM; lower means stronger binding.
Averages over replicates are reported, and they cover detected replicates only.
A pair that was not seen in any replicate is written "not detected"; this usually means weak binding, but a binder can also be missed.
Entries are sorted by rising average, undetected variants last.
The authors averaged sequences with at least three values out of six and counted those with two or fewer as poor binders.

CDR-L1 | CDR-L2 | CDR-L3 | group | mean, log10 nM | replicates with signal | empty controls
KLQQSVLYESRNKNAVA | NASTRES | QQYHRLPLS | GP_Gen | -0.59 | 6 of 6 | 2 of 18
KLQQSWLYESRNKNSVA | NASQRLS | QQYHRLPLS | GP_Gen | -0.54 | 6 of 6 | 0 of 18
KLQQQDEYWSRNKNSVA | QASTREQ | QQYHRLPLS | GP_Gibbs | -0.54 | 6 of 6 | 0 of 18
TLGDVTRMESNKKDSIA | DMSNRAD | QQYHRLPLS | En_HC | -0.45 | 6 of 6 | 0 of 18
KLQQSELYMDRNANNVA | NASTRMS | QQYHRLPLS | GP_Gibbs | -0.44 | 6 of 6 | 2 of 18
KMEQGELYESRNKGSVA | GASVRES | QQYHRLPLS | GP_HC | -0.42 | 6 of 6 | 0 of 18
KSGQGWLYESRNKNSVA | GASLRES | QQYHRLPLS | GP_HC | -0.38 | 6 of 6 | 0 of 18
KMPQSELYESRNKNSVA | NASTRES | QQYHRLPLS | GP_Gen | -0.36 | 6 of 6 | 1 of 18
TLGDVTRMEANKKNSIA | DMSNRAD | QQYHRLPLS | En_HC | -0.29 | 6 of 6 | 0 of 18
KLSQSVLYESRNSNAVA | NASTRES | QQYHRLPLS | GP_Gen | -0.27 | 6 of 6 | 0 of 18
KLSISDLYESRNKNSVA | EASTREQ | QQYHRLPLS | GP_HC | -0.18 | 6 of 6 | 0 of 18
KLDQSVEYGSRNKNSVA | SASTRES | QQYHRLPLS | GP_Gibbs | -0.15 | 6 of 6 | 1 of 18
KLSQSMLYESRNFNSVA | NASTRES | QQYHRLPLS | GP_Gen | -0.14 | 6 of 6 | 0 of 18
KSSISYLYESENKCSVA | EASQRES | QQYHRLPLS | GP_HC | -0.13 | 6 of 6 | 0 of 18
KLRQSTLYESRNKNSVA | QASTRES | QQYHRLPLF | GP_HC | -0.10 | 6 of 6 | 0 of 18
KLVQSNLYESRNTNSVA | NASQRLS | QQYHRLPLS | GP_Gibbs | -0.08 | 6 of 6 | 0 of 18
KLSQSVLYESRAKNSVA | NASTRES | QQYHRLPLS | GP_Gen | -0.04 | 6 of 6 | 0 of 18
KVSPSWLYESRNKNSVA | QASTRES | QQYHRLPLS | GP_HC | -0.03 | 6 of 6 | 2 of 18
KVQQSVPYESRNKNSVA | NASTRMS | QQYHRLPLS | GP_Gen | -0.02 | 6 of 6 | 0 of 18
KLYQSNLYESRNKNSVA | NASTRES | QQYHRLPLS | GP_Gen | 0.01 | 6 of 6 | 2 of 18
NLQNIGSELSVWKRAIA | DANIRES | QQYFRLPLL | En_Gibbs | 0.02 | 6 of 6 | 2 of 18
KLSQSVLYESRNKNSVA | HASTRES | QDYHRLPLS | GP_Gen | 0.03 | 6 of 6 | 1 of 18
TLGGVTSYEMQNVNSVA | QMTTRES | QQYHRLPLS | En_HC | 0.04 | 6 of 6 | 0 of 18
KLQQSELYESRNKNSVA | NASYRES | QQYHRLPLS | GP_Gen | 0.04 | 6 of 6 | 1 of 18
KLSQSGLYEMRNKMSVA | QASQRLS | QQYHRLPLS | GP_Gibbs | 0.04 | 6 of 6 | 0 of 18
KSSVSYLEESRNKNSVA | EASTRES | QQYHRLPLS | GP_HC | 0.08 | 6 of 6 | 4 of 18
KLPQSQLYESRNKNSVA | SASTRES | QQYHRLPLS | GP_Gen | 0.10 | 6 of 6 | 0 of 18
KVQQSVPYESRNKNSVA | DASTRES | QQYHRLPLS | GP_Gen | 0.11 | 6 of 6 | 0 of 18
KLSQSWLYESRNKNSVA | NASTRLM | QQYHRLPLS | GP_Gen | 0.13 | 6 of 6 | 1 of 18
KSSWSVKFESRNKNSVA | DASTRES | QQYHRLPLS | GP_HC | 0.16 | 6 of 6 | 1 of 18
KLSQSGLYESRNKNSVA | SASTRES | QQYHRLPLS | GP_Gen | 0.16 | 6 of 6 | 1 of 18
KHSISVMREDRNKNSVA | DASTRES | QQYHRLPLS | GP_Gibbs | 0.17 | 6 of 6 | 0 of 18
KMSQSALMESRNWNSVA | NASKRES | QQYHRLPLS | GP_Gibbs | 0.17 | 6 of 6 | 1 of 18
KLSQSELYESRNKNSVA | MASQRES | QQYHRLPLS | GP_Gen | 0.20 | 6 of 6 | 1 of 18
KLYQMTGIESHAKNSLA | DANRRES | QQYHRLPLS | En_HC | 0.20 | 6 of 6 | 2 of 18
KCSQSVLYESRNKNSVA | DASTRES | QQYHRLPLS | GPLM_HC | 0.20 | 6 of 6 | 1 of 18
HISMMVGTKGYAKNSVA | NEETRAD | QQYHRLPLS | En_HC | 0.23 | 6 of 6 | 0 of 18
TIGQSVHETSRIKNSVA | HASTREE | QQYDRLPLS | En_HC | 0.24 | 6 of 6 | 1 of 18
KLSMVTNSEHKVKNSIA | EMVTREK | QQYDRLPLM | En_HC | 0.25 | 6 of 6 | 1 of 18
HSSPSVYYESRNKNSVA | NASSRES | QQYHRLPLS | GP_HC | 0.25 | 6 of 6 | 3 of 18

Second part, the sequence after the result:

mean, log10 nM | replicates with signal | empty controls | CDR-L1 | CDR-L2 | CDR-L3 | group
0.26 | 6 of 6 | 1 of 18 | KLDGSDLYESRNKNSVA | EGSTRES | QAYHRLPLS | GP_Gibbs
0.33 | 6 of 6 | 1 of 18 | KSSQSVLYESRNKNSVA | GASTREN | QQYHRLPLS | Ctrl
0.37 | 6 of 6 | 1 of 18 | KSSISKLGESRNKNSVA | EASTRES | QQYHRLPLS | GP_HC
0.43 | 6 of 6 | 3 of 18 | KSSQSVLNESRNFNSVA | DASTRES | QQYHRLPLS | GP_HC
0.44 | 6 of 6 | 0 of 18 | KSQQSWEYESRNSNSVA | QASTRMA | QQYHRLPLI | GP_Gibbs
0.53 | 6 of 6 | 1 of 18 | TISQIYNMGQFAINSVA | QASERCN | QQYDRLPLM | En_Gen
0.55 | 6 of 6 | 0 of 18 | HFSQVTMYGSWLKNSVA | QTSTREE | QQYDRLPLS | En_HC
0.55 | 6 of 6 | 3 of 18 | IISSVDAYESRNKNSIA | DQSTRGS | QQYDRLPLS | En_HC
0.58 | 6 of 6 | 0 of 18 | KIGMTLNQLQHQKNNVA | DLVMREK | QQYHRLPLS | En_Gen
0.61 | 6 of 6 | 0 of 18 | TISQMTSLFSQKINNVA | EVSMREE | QQYDRLPLA | En_Gen
0.75 | 6 of 6 | 0 of 18 | QLDQAYRVGALWTDSIA | HGSMRVQ | QCYNRLPLS | En_Gibbs
0.75 | 6 of 6 | 1 of 18 | KLSQSVAYESRTKNSVA | NASTRES | QQYHRMILS | Ctrl
0.79 | 6 of 6 | 3 of 18 | KSSQSVLYESRNKNSVA | DASTRVS | QQYHRLPLS | Ctrl
0.81 | 6 of 6 | 0 of 18 | HINEVDHGVKNKYNNIA | DISELAI | QQYFQLPIS | En_Gibbs
0.86 | 6 of 6 | 3 of 18 | MVNQHDEGFKGVKDNIA | NAATREG | QHYGRLPLS | En_Gibbs
0.88 | 6 of 6 | 1 of 18 | RSSQSVLYESENKNSVA | WASTRAS | QQYQRLPLS | Ctrl
1.06 | 6 of 6 | 3 of 18 | IISGSMIMESRNKNSVA | NAETREY | QHYDRLPLS | En_HC
1.14 | 3 of 6 | 0 of 18 | HMSMLTLMGMKQRNSVA | QMTTREN | QQYDRLPLA | En_Gen
1.24 | 6 of 6 | 0 of 18 | KLLQEVTGASRNRNSVA | HNSTRED | QQYDRLPLS | En_HC
1.28 | 1 of 6 | 0 of 18 | HYFQQMRDDLEENNPIA | NASIRES | QQYGRLPLT | En_Gibbs
1.29 | 1 of 6 | 0 of 18 | ALALTLHQVDSQMNNIA | EGMLRES | QQYNRLPLN | En_Gibbs
1.45 | 6 of 6 | 5 of 18 | HFQQSVPYESRNFNSVA | NASLRFS | QQYHRLPLS | GP_Gibbs
1.48 | 6 of 6 | 1 of 18 | KSSQSVLPESRNKNSVA | WASTRES | QQYHRLPLS | Ctrl
1.59 | 6 of 6 | 0 of 18 | STTSHEEESEGAHASVA | EASMLES | QQYHRLPLM | En_Gibbs
1.62 | 6 of 6 | 0 of 18 | KIGMVLNTLSHKQNNVA | DLVTREN | QQYYRLPLS | En_Gen
2.03 | 5 of 6 | 0 of 18 | KMSGLVLYESRNKNSVA | TANTRES | QQYHRLPLF | Ctrl
2.04 | 4 of 6 | 2 of 18 | MISQLMNMGQFAINSVA | QVSIRNE | QQYDRLPLM | En_Gen
2.04 | 6 of 6 | 0 of 18 | KSSQSVLQEWRNKNSVA | WASTREI | QQYCRLPLS | Ctrl
2.14 | 5 of 6 | 0 of 18 | KLSATYRYESQNKNSIA | EMSTREA | QCYHRLPLS | En_HC
2.17 | 3 of 6 | 0 of 18 | YLSNQETEQIQHANSIA | DRDEVDV | QQYAHLPLS | En_Gibbs
2.34 | 6 of 6 | 3 of 18 | KLTHLSFVHDRQKNNVA | DLNRKAA | QQYNRLPLT | En_Gibbs
2.37 | 4 of 6 | 1 of 18 | MLSDLVKMGVRNTNSVA | DNSTRGS | QQYDRLPLS | En_HC
2.42 | 2 of 6 | 1 of 18 | KSSQSVLYESRNKRSVA | WASTRES | QQYHRLPLS | Ctrl
2.81 | 2 of 6 | 0 of 18 | KDSQSVLYEERNYNSVA | EASTRES | QQYHRDELS | Ctrl
2.88 | 4 of 6 | 1 of 18 | MFDQQTMNENDKNNSVA | EVNHLYN | QQYAQLPLI | En_Gibbs
3.07 | 2 of 6 | 0 of 18 | SISMSMAFLSRNKNSVA | ENSTRES | QQYDRLPLL | En_HC
not detected | 0 of 6 | 0 of 18 | KLGQSVAMTSRQKNNVA | DLNERER | QQYHRLPLS | En_HC
not detected | 0 of 6 | 1 of 18 | KSSQSQLYESRNKNSVA | WASTTES | QQYHRLPLK | Ctrl
not detected | 0 of 6 | 0 of 18 | KDSQSVLYESRQKNSVA | WASTRES | QQYHMLPLS | Ctrl
not detected | 0 of 6 | 0 of 18 | KCSQSVMYESRNKNSVA | KASTRES | QQYHRLPLF | Ctrl

Excerpt, the first 7 entries:

{"CDR-L1": "KLQQSVLYESRNKNAVA", "CDR-L2": "NASTRES", "CDR-L3": "QQYHRLPLS", "group": "GP_Gen", "mean, log10 nM": "-0.59", "replicates with signal": "6 of 6", "empty controls": "2 of 18"}
{"CDR-L1": "KLQQSWLYESRNKNSVA", "CDR-L2": "NASQRLS", "CDR-L3": "QQYHRLPLS", "group": "GP_Gen", "mean, log10 nM": "-0.54", "replicates with signal": "6 of 6", "empty controls": "0 of 18"}
{"CDR-L1": "KLQQQDEYWSRNKNSVA", "CDR-L2": "QASTREQ", "CDR-L3": "QQYHRLPLS", "group": "GP_Gibbs", "mean, log10 nM": "-0.54", "replicates with signal": "6 of 6", "empty controls": "0 of 18"}
{"CDR-L1": "TLGDVTRMESNKKDSIA", "CDR-L2": "DMSNRAD", "CDR-L3": "QQYHRLPLS", "group": "En_HC", "mean, log10 nM": "-0.45", "replicates with signal": "6 of 6", "empty controls": "0 of 18"}
{"CDR-L1": "KLQQSELYMDRNANNVA", "CDR-L2": "NASTRMS", "CDR-L3": "QQYHRLPLS", "group": "GP_Gibbs", "mean, log10 nM": "-0.44", "replicates with signal": "6 of 6", "empty controls": "2 of 18"}
{"CDR-L1": "KMEQGELYESRNKGSVA", "CDR-L2": "GASVRES", "CDR-L3": "QQYHRLPLS", "group": "GP_HC", "mean, log10 nM": "-0.42", "replicates with signal": "6 of 6", "empty controls": "0 of 18"}
{"CDR-L1": "KSGQGWLYESRNKNSVA", "CDR-L2": "GASLRES", "CDR-L3": "QQYHRLPLS", "group": "GP_HC", "mean, log10 nM": "-0.38", "replicates with signal": "6 of 6", "empty controls": "0 of 18"}

As a blank, each scFv also met three strains without target: over all light chain designs, 4% of these pairings were detected, typically at 2.64 and seldom below 1.59. Also given: how often the same scFv was detected with the empty control strains.
A sequence measured in both rounds can read differently, since the two assays cover different ranges.